The record followed here is ChEMBL document CHEMBL1144296, “3,4-Dihydro-2H-benzoxazinones are 5-HT(1A) receptor antagonists with potent 5-HT reuptake inhibitory activity” (Bioorg Med Chem Lett, 2005).

Protein sequences, listed by entry. Tags and fused reporters are not part of them.
UniProt P08908, whole entry: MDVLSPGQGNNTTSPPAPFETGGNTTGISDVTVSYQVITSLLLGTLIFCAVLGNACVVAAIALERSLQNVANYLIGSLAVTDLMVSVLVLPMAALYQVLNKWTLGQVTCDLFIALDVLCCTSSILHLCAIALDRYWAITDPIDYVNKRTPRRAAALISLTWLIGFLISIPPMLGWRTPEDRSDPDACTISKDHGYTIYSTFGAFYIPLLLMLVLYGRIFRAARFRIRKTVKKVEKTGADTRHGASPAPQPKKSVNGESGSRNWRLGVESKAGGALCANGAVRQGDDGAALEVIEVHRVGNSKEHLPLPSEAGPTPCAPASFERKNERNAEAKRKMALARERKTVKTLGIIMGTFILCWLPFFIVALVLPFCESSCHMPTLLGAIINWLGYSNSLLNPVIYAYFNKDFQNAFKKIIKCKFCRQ

For this assay, the target named is 5-hydroxytryptamine receptor 1A (Homo sapiens, UniProt P08908). The assay is described as follows: Mean negative logarithim of binding affinity was measured for the human 5-hydroxytryptamine 1A receptor; n>/=3.

`Cc1ccc2c(OCCN3CCC(Cc4ccc5c(c4)NC(=O)CO5)CC3)cccc2n1` showed a Ki of 0.316 nM.
